The values below come from article PMC7956722, “Expression of Luteinizing Hormone-Releasing Hormone (LHRH) and Type-I LHRH Receptor in Transitional Cell Carcinoma Type of Human Bladder Cancer” (Molecules, 2021).

This assay addresses T1, LHRH receptors (human bladder cancer specimens, crude membranes) (Homo sapiens, UniProt P30968).
T1 construct: membrane homogenates of bladder cancer specimens containing 60–150 µg protein were incubated in duplicate; from tissue; host or cells: surgically resected human bladder cancer (transitional cell carcinoma) tissue, crude membrane fractions
T1 sequence (P30968 1-328): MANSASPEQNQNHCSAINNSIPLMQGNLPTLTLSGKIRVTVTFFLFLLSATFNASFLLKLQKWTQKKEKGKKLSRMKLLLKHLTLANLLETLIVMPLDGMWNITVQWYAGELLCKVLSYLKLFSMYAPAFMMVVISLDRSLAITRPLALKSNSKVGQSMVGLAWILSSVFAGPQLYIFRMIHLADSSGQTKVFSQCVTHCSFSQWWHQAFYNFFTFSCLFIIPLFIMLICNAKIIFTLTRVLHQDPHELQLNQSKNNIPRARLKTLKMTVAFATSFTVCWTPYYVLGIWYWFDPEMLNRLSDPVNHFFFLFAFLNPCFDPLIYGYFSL
The experiment in a line: Radioligand binding / Scatchard analysis of [125I][D-Trp6]LHRH on membranes of human bladder cancer specimens. To be noted: 12 human bladder cancer specimens examined. Here is the method: Analysis of the typical displacement of radiolabeled [D-Trp^6] […] Biochemical parameters essential to establish the identity of specific binding sites were also determined.
The assay was performed as described earlier. […] At the end of the incubation, 125 µL aliquots of suspension were transferred onto the top of 1 mL of ice-cold binding buffer containing 1.5% BSA in microcentrifuge tubes. The tubes were centrifuged at 12,000× g for 3 min at 4 °C. Supernatants were aspirated and the pellet was counted in a gamma counter. Protein concentration was determined by the method of Bradford using a Bio-Rad protein assay kit (Bio-Rad Laboratories, Hercules, CA, USA). The final binding affinities were expressed as IC50 values and were calculated by using the LIGAND-PC computerized curve-fitting program of Munson and Rodbard.

For the substance “pGlu-His-Trp-Ser-Tyr-Gly-Leu-Arg-Pro-Gly-NH2 [LHRH, decapeptide, pivotal hormone of the hypothalamo-pituitary gonadal axis]”, the “binding sites found by ligand competition assay” value was “a single class of high affinity binding sites”.
